Literature values in PMC4708017, “Antiplasmodial activity of iron(II) and ruthenium(II) organometallic complexes against Plasmodium falciparum blood parasites” (Memórias do Instituto Oswaldo Cruz, 2015).

Conditions: ref Held et al. 2015a; cited from earlier work

In the case of ferroquine, the half-life is given as over 20 days.
